Literature values, collected in patent US7759312B2, “Delivery of dry formulations of octreotide” (priority 2005, dated 2010).

Assays:
[1] = system: growth hormone, glucagon, and insulin
[2] = patients with acromegaly; estimated

## L-cysteinamide, D-phenylalanyl-L-cysteiny-L-phenylalanyl-D-tryptophyl-L-lysyl-L-threonyl-N-[2-hydroxy-1-(hydroxymethyl)propyl]-,cyclic(2→7)-disulfide; [Octreotide, L-cysteinamide, D-phenylalanyl-L-cysteiny-L-phenylalanyl-D-tryptophyl-L-lysyl-L-threonyl-N-[2-hydroxy-1-(hydroxymethyl)propyl]-,cyclic(2→7)-disulfide; [R—(R*,R*)]]
[1]
  potency as inhibitor of growth hormone, glucagon, and insulin relative to somatostatin: even more potent inhibitor
[2]
  volume of distribution (Vdss): 21.6 ± 8.5 L
